One compound from article doi:10.1101/2025.08.13.670122v1 (bioRxiv, 2025) can be followed below.

Protein sequences, listed by entry. Tags and fused reporters are not part of them.
UniProt P25095, whole entry: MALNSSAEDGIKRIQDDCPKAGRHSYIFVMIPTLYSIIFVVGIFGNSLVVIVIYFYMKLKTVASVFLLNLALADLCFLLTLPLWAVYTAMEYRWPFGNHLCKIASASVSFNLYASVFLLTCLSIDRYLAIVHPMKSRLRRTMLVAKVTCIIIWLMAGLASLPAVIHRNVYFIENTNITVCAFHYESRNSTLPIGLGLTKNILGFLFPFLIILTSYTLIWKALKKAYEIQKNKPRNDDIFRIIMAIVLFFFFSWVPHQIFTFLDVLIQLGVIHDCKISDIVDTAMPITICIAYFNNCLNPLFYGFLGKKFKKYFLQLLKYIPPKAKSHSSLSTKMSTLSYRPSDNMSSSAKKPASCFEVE

Common to all, as to assay type: cell-based
In assay [1] the target is T1, endogenous AT1R (Rattus norvegicus, UniProt P25095).
T1 construct: expressing low levels of endogenous AT1R; endogenous in cells; host or cells: rat primary VSMC, passages 13-15
Briefly: PKC BRET sensor in rat primary VSMC with endogenous AT1R. Particulars: for 12 and TRV027 response at 10 μM. An excerpt:
(§1) We next assessed the analogs’ ability to engage Gαq by assessing either the PKC or Rho responses in rat primary vascular smooth muscle cell (VSMC) culture, expressing low levels of endogenous AT1R (between 25–50 fmol/mg) (Figure 4, Table 6).
(§2) The coding regions of the PKC-c1b sensor, PKN-RBD-RlucII, and rGFPcaax were PCR-amplified and subcloned into the KpnI/XhoI sites of the pENTR3C vector (Invitrogen), respectively. These were then transferred into the adenoviral expression vector pAd/CMV/V5-DEST (Invitrogen), via gateway cloning (pAD-CMV-PKC-c1b, pAD-CMV-PKN-RBD-RLucII, and pAD-CMV-rGFPcaax). Viruses containing the sensor codes were generated following a previously outlined process.[49] […] Viral titers were determined by serial dilution of adenovirus stock and subsequent infection of HEK293A cells in 96-well plates. 36 h after infection, cells were stained using an anti-hexon antibody (ab8249; Abcam), and hexon-expressing cells were tallied via fluorescence microscopy. […]
(§3) On the day of the experiment, each well was washed with 80 µL of Tyrode’s buffer (140 mM NaCl, 2.7 mM KCl, 1 mM CaCl2, 12 mM NaHCO3, 5.6 mM D-glucose, 0.5 mM MgCl2, 0.37 mM NaH2PO4, 25 mM Hepes (pH 7.4)). […] Cells were then stimulated with increasing doses of the indicated ligand, and BRET signals were measured using a Tristar2 (Berthold) microplate reader 10 min later. […]

Assay [2] has as its target T1, endogenous AT1R. Kind of assay: Rho BRET sensor in rat primary VSMC with endogenous AT1R. As to conditions: for 12 and TRV027 response at 10 μM.
Source text: as §1, §2, §3

The target of assay [3] is T2, AT1R (Homo sapiens, UniProt P30556). Briefly: Gαq activation BRET (GABY sensor) in HEK293 cells expressing AT1R. Set-up: expressed in transfected cells; host or cells: HEK293 cells, transient PEI transfection. As to conditions: response of the ligand at 10 μM, normalised to AngII. An excerpt: (§4) We utilized a clonal cell line HEK293, referred to hereafter as HEK293 cells, which has been previously described.[7],[8] As a gracious gift from A. Inoue (Tohoku University, Sendai, Miyagi, Japan), CRISPR Gαq/11 and Gα12/13 knockout cell lines (ΔGq/11 and ΔG12/13, respectively), were derived as previously explained.[48] In brief, a CRISPR-Cas9 system was used to target either GNAQ and GNA11 or GNA12 and GNA13 genes in HEK293T cells simultaneously to generate the Gαq/11 and Gα12/13 knockout cell lines. For the production of adenovirus, we utilized HEK293A cells. All cells were grown in DMEM supplemented with 10% FBS and Penicillin-Streptomycin-L-Glutamine (10000 IU penicillin, 10000 µg/mL Streptomycin, 200 mM L-Glutamine) at 37°C in T175 flasks under a 5% CO2 humidified chamber. Periodic testing was carried out for mycoplasma contamination (ABM™, Mycoplasma PCR Detection kit). […]
(§5) On the day of the experiment, each well was washed with 80 µL of Tyrode’s buffer (140 mM NaCl, 2.7 mM KCl, 1 mM CaCl2, 12 mM NaHCO3, 5.6 mM D-glucose, 0.5 mM MgCl2, 0.37 mM NaH2PO4, 25 mM Hepes (pH 7.4)). […] Cells were then stimulated with increasing doses of the indicated ligand, and BRET signals were measured using a Tristar2 (Berthold) microplate reader 10 min later. […] BRET signals were then measured using a Synergy2 (BioTek) microplate reader. […]
In general terms: In BRET a luciferase serves as donor, and the signal depends on an acceptor being close.

The target in assay [4] is T2, AT1R. Kind of assay: PKC BRET sensor in HEK293 cells expressing AT1R. As to conditions: response at 10 μM, normalised to AngII. Set-up: expressed in transfected cells; host or cells: HEK293 cells, transient PEI transfection.
Source text: as §4, §5

Assay [5] has as its target T2, AT1R. Kind of assay: Rho BRET sensor (PKN-RBD-RlucII/rGFP-CAAX) in ΔG12/13 HEK293 cells expressing AT1R. Set-up: expressed in transfected cells; host or cells: HEK293 cells, transient PEI transfection. As to conditions: ΔG12/13 HEK293/AT1R, response at 10 μM, normalised to AngII.
Source text: as §4, §5

Structures are written as SMILES.

For the compound `CC[C@H](C)[C@H](NC(=O)[C@H](Cc1ccc(O)cc1)NC(=O)[C@@H](NC(=O)[C@H](CCCNC(=N)N)NC(=O)CNC)C(C)C)C(=O)N[C@@H](Cc1c[nH]cn1)C(=O)N1CCC[C@H]1C(=O)N[C@H](C)C(=O)O` [TRV027, reference compound], the “Emax PKC in VSMCs (% AngII)” value at endogenous AT1R [1] worked out at 1 % AngII. Besides, the “Emax Rho in VSMCs (% AngII)” value at endogenous AT1R [2] was found to be 3 % AngII. Further, the “Emax Gαq (% AngII)” value on AT1R [3] is recorded as 2 % AngII. For the same compound, the “Emax PKC (% AngII)” value on AT1R [4] is recorded as 3 % AngII. Also, the “Emax Rho Gαq/11 (% AngII)” value on AT1R [5] is listed as 13 % AngII.
